Assay: Solubility of salts in water (water added in 0.2 ml portions)
Assay type: physicochemical

Meso-Tetraphenyl Chlorin Disulphonate bis(monoethanolamine) [Example 7]
Minimum solubility in water: 34.9 mg/mL

— US9026203B2, “Photosensitizing compositions” (PCI Biotech AS, priority 2009, dated 2015)
